Our source for the inhibition values is PubChem BioAssay AID1006 (Sanford-Burnham Center for Chemical Genomics, 2008).

Chains of the proteins cited; added tags and fusions are not shown.
UniProt P08659, whole entry, looked up: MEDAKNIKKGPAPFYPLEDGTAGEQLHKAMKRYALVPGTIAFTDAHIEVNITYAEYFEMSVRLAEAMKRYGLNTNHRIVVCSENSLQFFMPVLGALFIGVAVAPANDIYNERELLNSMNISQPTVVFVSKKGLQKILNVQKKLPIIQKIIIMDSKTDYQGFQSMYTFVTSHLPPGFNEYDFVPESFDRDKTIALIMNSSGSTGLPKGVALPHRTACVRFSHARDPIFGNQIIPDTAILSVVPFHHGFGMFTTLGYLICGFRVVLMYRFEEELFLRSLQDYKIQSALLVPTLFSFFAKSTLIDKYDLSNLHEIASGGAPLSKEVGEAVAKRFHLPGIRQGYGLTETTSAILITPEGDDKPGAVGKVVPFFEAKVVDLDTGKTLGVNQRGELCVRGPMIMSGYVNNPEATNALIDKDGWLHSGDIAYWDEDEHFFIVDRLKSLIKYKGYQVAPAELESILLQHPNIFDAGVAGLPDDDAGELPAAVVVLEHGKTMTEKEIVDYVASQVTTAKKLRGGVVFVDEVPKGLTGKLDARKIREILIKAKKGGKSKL

What is called inhibition is the change of the read-out against control, counted positive when it falls.

Each structure is given as a SMILES string. The entries are a selection whose mix differs from that of the whole data set. The source made the active and inactive calls.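 Rule for the calls: active = inhibition above about 50% when tested at 10 µM (limit read from the data); inactive = the rest.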

This experiment has as its target Luciferin 4-monooxygenase (Photinus pyralis) (UniProt P08659). Put plainly: firefly luciferase enzyme inhibitors, primary screen, artefact control for luciferase-based inhibitor screens, biochemical, luminescence, ATPLite (AID 1006). Particulars: 10 min, at 10 µM, stronger effect = higher value.
In the case of `Cc1cc(SC(NC(=O)c2ccccc2)C(Cl)(Cl)Cl)nc(C(C)C)n1` (centres undefined), the inhibition was inactive: -8.9%.

As for `Cc1cc(SC(NC=O)C(Cl)(Cl)Cl)ncn1` (centres undefined), the inhibition was inactive: 0.5%.

As for `O=P(Nc1ccccn1)(c1cccc2ccccc12)c1cccc2ccccc12`, the inhibition is inactive: -4.4%.

Regarding `O=C(COc1ccccc1)OC1CN2CCC1CC2` (centres undefined), the inhibition is inactive: -1.7%.

Regarding `COP1(=S)c2c(C)nn(CCC#N)c2N=C(c2ccc(F)cc2)N1C` (centres undefined), the inhibition was inactive: -3.7%.

In the case of `CCC(C)N(CC(C)C)C(=S)SC(NC(C)=O)C(Cl)(Cl)Cl` (centres undefined), the inhibition is inactive: -7.5%.

Consider `COc1ccc2nc(NP(=O)(c3ccccc3)c3ccccc3)sc2c1`, for which the inhibition was inactive: -10.9%.

Consider `Cc1c2c(nc3ccccc13)SC(C(Cl)Cl)C2` (centres undefined), for which the inhibition was inactive: -0.4%.

In the case of `O=C(OC1CN2CCC1CC2)C12CC3CC(CC(C3)C1)C2` (centres undefined), the inhibition was inactive: -2%.

On to `Cc1cc(=O)[nH]c(N[N+](=O)[O-])n1`, for which the inhibition was inactive: -1.8%.

With `COc1ccc(N/C(=N/P(=O)(N2CCOCC2)N2CCOCC2)N2CCOCC2)cc1`, the inhibition was inactive: -6.2%.

On to `Cc1ccc2nc3c(c(C)c2c1)CC(C(Cl)Cl)S3` (centres undefined), for which the inhibition was inactive: -1.5%.

On to `CCN(CC)C(=S)SC(NC=O)C(Cl)(Cl)Cl` (centres undefined), for which the inhibition was inactive: -1.8%.

On to `CC(C)NC(=O)NP(=O)(Oc1ccccc1)Oc1ccccc1`, for which the inhibition is inactive: -5.4%.

Consider `O=[N+]([O-])c1cc([N+](=O)[O-])c(-c2ccn[nH]2)s1`, for which the inhibition was inactive: -2.5%.

Take `ClCCSc1nnc(-c2cccnc2)o1`: the inhibition was inactive: 1.6%.

Regarding `CCOP1(=S)c2c(C)nn(CCC#N)c2N=C(c2ccccc2F)N1C` (centres undefined), the inhibition is inactive: -6.5%.

`O=P(Nc1nccs1)(c1ccccc1)c1nc2ccccc2s1` (centres undefined): the inhibition was inactive: -0.3%.

With `O=P(Nc1nccs1)(Oc1ccccc1)Oc1ccccc1`, the inhibition was inactive: -1.6%.

As for `CCOP1(=S)c2c(C)nn(CCC#N)c2N=C(c2ccc(F)cc2)N1C` (centres undefined), the inhibition is inactive: -6.4%.

As for `O=[N+]([O-])c1ccc2c(c1)nnn2O`, the inhibition is inactive: -4.9%.

Turning to `Cc1cccc(OCC(=O)OC2CN3CCC2CC3)c1` (centres undefined), the inhibition was inactive: -2.1%.

Regarding `COc1cc(C(=O)NCC2(N3CCOCC3)CCCCC2)cc(Cl)c1OC(C)C`, the inhibition is inactive: -2.6%.

In the case of `COc1cc(C2NCCC3(OCCO3)C2(C)C)cc(OC)c1OC` (centres undefined), the inhibition is inactive: -4.1%.

Consider `CCOP(=O)(Nc1cccc2ccccc12)OCC`, for which the inhibition is inactive: -2.9%.

Turning to `Cc1ccc(NCCc2c([N+](=O)[O-])cc([N+](=O)[O-])cc2[N+](=O)[O-])cc1`, the inhibition is inactive: -0.4%.

On to `Clc1n[nH]nc1-c1nn[nH][15n]1`, for which the inhibition was inactive: -5.5%.

As to `O=P1(Nc2ccccn2)COc2ccccc2OC1`, the inhibition was inactive: -5.2%.

On to `CN(C(=O)Cc1ccc(Cl)c(Cl)c1)[C@@H]1CCCC[C@H]1N1CCCC1`, for which the inhibition was inactive: -3.5%.

Take `CC(C)/C=N\N=C(\N)N[N+](=O)[O-]`: the inhibition is inactive: -5.1%.

Take `CN(C)C1(CNC(=O)c2ccc(S(C)(=O)=O)cc2)CCCCC1`: the inhibition is inactive: -4.6%.

With `Cc1nn(-c2ccccc2)c2c1P(=O)(N1CCOCC1)N(C)C(c1ccccc1)=N2` (centres undefined), the inhibition is inactive: -8.1%.

As to `CC1CCC(C(C)C)C(OP(=O)(Nc2ccccn2)c2ccccc2)C1` (centres undefined), the inhibition is inactive: -1.5%.

Turning to `O=P1(Nc2ccc(Br)cn2)COc2ccccc2OC1`, the inhibition was inactive: -3.3%.

On to `Cc1ccc(OCC(=O)OC2CN3CCC2CC3)cc1` (centres undefined), for which the inhibition is inactive: -2.6%.

For `O=P1(Nc2ncccn2)COc2ccccc2OC1`, the inhibition was inactive: 6.4%.

Take `O=P(Nc1ccccn1)(c1ccc(Br)cc1)c1ccc(Br)cc1`: the inhibition is inactive: 3.1%.

For the molecule `O=C(OC1CN2CCC1CC2)c1cccc(Cl)c1` (centres undefined), the inhibition is inactive: -0.3%.

As to `C(Cc1nn[nH]n1)Cc1nn[nH]n1`, the inhibition was inactive: -2.9%.

With `CC(=O)NC(SC(=S)N(C)C)C(Cl)(Cl)Cl` (centres undefined), the inhibition is inactive: -2.2%.

On to `c1nnnn1CCn1cnnn1`, for which the inhibition was inactive: -7.1%.

With `O=P(Nc1nccs1)(c1ccccc1)c1ccccc1`, the inhibition was inactive: -0.6%.

On to `CC(C)C(=O)NC(Sc1ccccc1)C(Cl)(Cl)Cl` (centres undefined), for which the inhibition was inactive: -6.8%.

In the case of `CC(C)(C)C(=O)NC(Sc1ccccc1)C(Cl)(Cl)Cl` (centres undefined), the inhibition is inactive: -7.2%.

For `O=P1(Nc2nc3ccc(Cl)cc3s2)COc2ccccc2O1` (centres undefined), the inhibition was inactive: 1.1%.

Turning to `CCOc1ccc(C2=NCC(CBr)S2)cc1` (centres undefined), the inhibition was inactive: 16.7%.

With `CC(=O)Nc1ccc(Oc2c([N+](=O)[O-])cc([N+](=O)[O-])cc2[N+](=O)[O-])cc1`, the inhibition is inactive: -3.6%.

`c1ccc(-c2nn[nH]n2)c(-c2nn[nH]n2)c1`: the inhibition was inactive: 4.4%.

Regarding `CCOC(=O)NC(Sc1ccccc1)C(Cl)(Cl)Cl` (centres undefined), the inhibition was inactive: -6.8%.

In the case of `O=C(NC1CCS(=O)(=O)C1)NP(=S)(Oc1ccccc1)Oc1ccccc1` (centres undefined), the inhibition was inactive: -1.5%.

Consider `CCNC(=S)/N=C(\N)N[N+](=O)[O-]`, for which the inhibition is inactive: -9%.

Turning to `O=c1c2cc([N+](=O)[O-])ccc2[nH]c2c([N+](=O)[O-])cc([N+](=O)[O-])cc12`, the inhibition was inactive: -7.7%.

For the molecule `CCC(=O)N1C2C3N(C(=O)CC)C1C1N(C(=O)CC)C(C(N1C(=O)CC)N3C(=O)CC)N2C(=O)CC`, the inhibition was inactive: -8.7%.

With `COC(=O)c1cc2c(s1)N=C(c1ccccc1)N(C)P2(=O)N1CCOCC1` (centres undefined), the inhibition is inactive: -6.9%.

Consider `Cc1ccc(OP(=O)(Nc2ccccn2)Oc2ccc(C)cc2)cc1`, for which the inhibition was inactive: -4.6%.

As to `CC(=O)NC(SC(=S)N(CC(C)C)CC(C)C)C(Cl)(Cl)Cl` (centres undefined), the inhibition was inactive: -10%.

As to `CCOP(=O)(Nc1ccccc1)OCC`, the inhibition was inactive: -4.9%.

As for `Cc1cc(SC(NC(=O)c2ccc(F)cc2)C(Cl)(Cl)Cl)ncn1` (centres undefined), the inhibition is inactive: -11.4%.

In the case of `CCN(N=Nc1nonc1N)c1nonc1N`, the inhibition is inactive: -16.7%.

As for `Clc1ccc(Cl)c(NC2=NCC(CBr)S2)c1` (centres undefined), the inhibition was inactive: -4.6%.

For the molecule `CN1CCCC(OC(=O)C(c2ccccc2)c2ccccc2)C1` (centres undefined), the inhibition was inactive: -4.5%.

In the case of `COc1ccccc1OP(=O)(Nc1ccc(C)cn1)Oc1ccccc1OC`, the inhibition is inactive: -4.1%.

On to `Cc1ccc(N/C(=N/P(=O)(N2CCOCC2)N2CCOCC2)N2CCOCC2)cc1`, for which the inhibition is inactive: -5.1%.

On to `NC(=O)c1cc([N+](=O)[O-])cc([N+](=O)[O-])c1N`, for which the inhibition is inactive: 0.6%.

For the molecule `Oc1ccccc1CNc1ccccn1`, the inhibition was inactive: -1.3%.

Take `Cc1c2non([O-])c-2c(C)[n+](=O)[n+]1[O-]`: the inhibition is inactive: 1.3%.

On to `O=C(NC(Sc1ccncn1)C(Cl)(Cl)Cl)c1ccccc1` (centres undefined), for which the inhibition is inactive: -5.5%.

Consider `CC(C)CC(=O)NC(Sc1ccc(Cl)cc1)C(Cl)(Cl)Cl` (centres undefined), for which the inhibition is inactive: -6.2%.

For `Cc1ccc(NP(=O)(Oc2ccccc2)Oc2ccccc2)nc1`, the inhibition was inactive: -3.9%.

For `O=[N+]([O-])c1cc([N+](=O)[O-])c(CCNc2ccccc2)c([N+](=O)[O-])c1`, the inhibition is inactive: -3.2%.

`CCc1nc2c(n1)c1c(non1O)c1c2no[n+]1[O-]`: the inhibition was inactive: -9.9%.

Turning to `CC(=O)N1C2C3N(C(C)=O)C1C1N(C(C)=O)C(C(N1C(C)=O)N3C(C)=O)N2C(C)=O`, the inhibition was inactive: -10.1%.

As to `O=[N+]([O-])c1cccc2n[nH]nc12`, the inhibition was inactive: -5.9%.

On to `COc1ccc(C2=NCC(CBr)S2)cc1` (centres undefined), for which the inhibition was inactive: 3.9%.

With `CC1CCN(C(=O)Oc2c(Cl)cc(Cl)c3cccnc23)CC1`, the inhibition was inactive: -1.1%.

Regarding `CC(C)=N/N=C(\N)N[N+](=O)[O-]`, the inhibition is inactive: -3.8%.

With `CN(C)C(=O)OCCc1n(C)cc[n+]1C`, the inhibition is inactive: -3%.

For the molecule `CCN(/C(=N/P(=O)(N1CCOCC1)N1CCOCC1)N1CCOCC1)c1ccc(OC)cc1`, the inhibition was inactive: -4.1%.

`O=[N+]([O-])c1ncn(CCn2ncnc2[N+](=O)[O-])n1`: the inhibition was inactive: -0.9%.
